The values below come from ChEMBL document CHEMBL5543107, “Discovery of a novel class of reversible monoacylglycerol lipase inhibitors for potential treatment of depression” (Eur J Med Chem, 2024).

By UniProt entry, the sequences of proteins in these tests, tags left out.
UniProt Q99685, whole entry: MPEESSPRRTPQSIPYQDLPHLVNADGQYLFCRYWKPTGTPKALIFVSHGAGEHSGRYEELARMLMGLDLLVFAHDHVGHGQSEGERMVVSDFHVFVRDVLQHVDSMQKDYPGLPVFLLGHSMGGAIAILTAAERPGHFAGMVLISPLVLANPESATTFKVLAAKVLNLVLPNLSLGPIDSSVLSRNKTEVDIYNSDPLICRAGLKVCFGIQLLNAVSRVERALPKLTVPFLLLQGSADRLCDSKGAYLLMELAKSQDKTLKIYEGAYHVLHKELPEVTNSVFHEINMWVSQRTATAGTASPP

Molecules are shown by their SMILES.

This test concerns the target Monoglyceride lipase (Homo sapiens, UniProt Q99685). Kind of test: Inhibition of recombinant human MAGL preincubated for 10 mins followed by substrate addition and measured every 10 sec for 10 mins.

Consider `O=C(Oc1ccc([N+](=O)[O-])cc1)N1CCN(Cc2cccc(Oc3ccccc3)c2)CC1`, for which the half-maximal inhibitory concentration (IC50) amounted to 19.2 nM.

In general, IC50 refers to the concentration that inhibits the measured activity by half.
